Consider one molecule from patent publication US11040026B2, “Muscarinic M1 receptor positive allosteric modulators” (SUVEN LIFE SCIENCES LIMITED, priority 2016, dated 2021).

Sequences of proteins named here, by UniProt entry; tags and fusion partners are left off.
UniProt P11229, whole entry: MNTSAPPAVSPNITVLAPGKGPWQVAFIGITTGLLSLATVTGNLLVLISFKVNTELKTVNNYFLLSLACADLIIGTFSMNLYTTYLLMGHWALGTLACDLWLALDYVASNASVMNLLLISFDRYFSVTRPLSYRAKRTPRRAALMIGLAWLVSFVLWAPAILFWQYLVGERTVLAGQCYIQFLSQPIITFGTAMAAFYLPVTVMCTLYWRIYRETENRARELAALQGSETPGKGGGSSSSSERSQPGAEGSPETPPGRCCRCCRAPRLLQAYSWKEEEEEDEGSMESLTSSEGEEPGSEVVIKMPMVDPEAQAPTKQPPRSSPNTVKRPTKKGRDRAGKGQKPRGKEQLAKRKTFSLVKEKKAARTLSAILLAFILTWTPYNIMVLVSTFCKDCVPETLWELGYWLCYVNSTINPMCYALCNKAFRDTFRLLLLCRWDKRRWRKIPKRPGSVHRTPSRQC

SMILES strings stand for the structures.

This experiment deals with recombinant human Muscarinic M1 receptor (Homo sapiens, UniProt P11229). The experiment in a line: Allosteric potency EC50 for muscarinic M1 receptor (CHO pCRE-Luc reporter assay). Particulars: in presence of EC20 of acetylcholine; CHO cells, luciferase reporter, 4 hours. Here is the method:
Determination of Allosteric Potency EC50 Values for Muscarinic M1 Receptor:
A stable CHO cell line expressing recombinant human Muscarinic M1 receptor and pCRE-Luc reporter system was used for cell-based assay. The assay offers a non-radioactive based approach to determine binding of a compound to GPCRs. In this specific assay, the level of intracellular cyclic AMP which is modulated by activation or inhibition of the receptor is measured. The recombinant cells harbor luciferase reporter gene under the control of cyclic AMP response element.
The above cells were grown in 96 well clear bottom white plates in Hams F12 medium containing 10% fetal bovine serum (FBS). Prior to the addition of compounds or standard agonist, cells were serum starved overnight. Increasing concentrations of test compounds were added along with EC20 of acetylcholine in OptiMEM medium to the cells. The incubation was continued at 37° C. in CO2 incubator for 4 hours. Medium was removed and cells were washed with phosphate buffered saline. The cells were lysed and luciferase activity was measured in a Luminometer. Luminescence units were plotted against the compound concentrations using Graphpad software. EC50 values of the compounds were defined as the concentration required in stimulating the luciferase activity by 50% in presence of EC20 of acetylcholine and the results are provided in table 1.
In general terms: In a reporter assay the amount or activity of a reporter protein is the signal.

With `Cn1ccc2c(Cc3ccnc(Cl)c3)cc(C(=O)N[C@H]3CCCC[C@@H]3O)nc21`, the EC50 turned out to be 0.57 µM.

A word on the EC50: it is the midpoint of the concentration-response curve.
